Source: PubChem BioAssay AID1416 (The Scripps Research Institute Molecular Screening Center, 2008)
“And” between values parts separate entries of the source, which are not always exact repeats. Equal values may be shown once. The entries are a selection whose mix differs from that of the whole data set. The source made the active and inactive calls.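 How the source made its calls: active means inhibition above the mean inhibition of all tested compounds plus 3 SD, set separately per screening campaign (cut at about 2.9% in these data); inactive means the rest.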

Amino acid sequences for entries named in this document (tags omitted). A change or cut given only in a name is not applied to a line headed by its entry.
UniProt Q9NZJ5: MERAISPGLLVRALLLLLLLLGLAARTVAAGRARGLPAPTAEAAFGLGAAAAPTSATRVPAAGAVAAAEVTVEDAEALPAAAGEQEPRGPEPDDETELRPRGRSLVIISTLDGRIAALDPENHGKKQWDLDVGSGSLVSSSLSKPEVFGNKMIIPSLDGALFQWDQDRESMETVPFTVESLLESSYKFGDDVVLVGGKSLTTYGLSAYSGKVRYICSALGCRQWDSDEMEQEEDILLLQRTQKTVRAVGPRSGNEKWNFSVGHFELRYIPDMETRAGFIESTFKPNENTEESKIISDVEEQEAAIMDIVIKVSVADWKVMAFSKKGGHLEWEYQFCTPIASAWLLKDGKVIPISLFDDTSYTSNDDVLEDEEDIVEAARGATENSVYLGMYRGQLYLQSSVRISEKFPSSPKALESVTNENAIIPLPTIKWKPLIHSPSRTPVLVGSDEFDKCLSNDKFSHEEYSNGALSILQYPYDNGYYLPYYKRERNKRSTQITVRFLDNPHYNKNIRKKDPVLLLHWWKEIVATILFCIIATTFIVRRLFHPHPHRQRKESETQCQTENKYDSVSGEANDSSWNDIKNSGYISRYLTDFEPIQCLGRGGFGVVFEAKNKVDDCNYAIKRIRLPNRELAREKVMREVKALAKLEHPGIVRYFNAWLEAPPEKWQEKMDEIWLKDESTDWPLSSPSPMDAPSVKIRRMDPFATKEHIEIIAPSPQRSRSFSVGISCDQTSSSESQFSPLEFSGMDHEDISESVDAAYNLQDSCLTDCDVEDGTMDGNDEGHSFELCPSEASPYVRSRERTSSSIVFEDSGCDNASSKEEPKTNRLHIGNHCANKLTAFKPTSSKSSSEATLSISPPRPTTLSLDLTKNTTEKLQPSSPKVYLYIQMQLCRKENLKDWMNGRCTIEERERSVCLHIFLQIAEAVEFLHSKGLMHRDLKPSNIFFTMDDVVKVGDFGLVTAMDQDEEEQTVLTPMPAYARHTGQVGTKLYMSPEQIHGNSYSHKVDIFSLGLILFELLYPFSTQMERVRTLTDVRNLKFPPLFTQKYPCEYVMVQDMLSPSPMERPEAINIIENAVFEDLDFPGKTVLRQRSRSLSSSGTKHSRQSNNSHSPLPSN

target: Eukaryotic translation initiation factor 2-alpha kinase 3 (Homo sapiens) (UniProt Q9NZJ5); experiment: SEAP translation reporter rise after PERK-DD activation – CHO PERK-DD cells, SEAP luminescence, HTS, PERK inhibitor project, primary screen (AID 1416); conditions: CHO PERK-DD fusion, at 5.6 µM, hits give high values;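 further: PERK kinase domain activated by AP20187 dimerizer at 100 nM; 0% = DMSO with dimerizer and 100% = rapamycin at 8.4 µM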

Row | Structure (SMILES) | inhibition
1 | O=C(OC1CN2CCC1CC2)c1cccc(Cl)c1 (configuration not stated) | inactive: 0.2%
2 | C(Cc1nn[nH]n1)Cc1nn[nH]n1 | inactive: 1.5%
3 | Nc1ccc([As](=O)(O)c2ccc([N+](=O)[O-])cc2)cc1 | inactive: 0.81%
4 | O=[As](O)(c1ccccc1)c1ccc(O)cc1 | inactive: -0.22%
5 | CC(=O)NC(SC(=S)N(C)C)C(Cl)(Cl)Cl (configuration not stated) | inactive: 0.72%
6 | O=[N+]([O-])c1ncn(CCn2cnc([N+](=O)[O-])n2)n1 | inactive: 1.66%
7 | O=P(Nc1nc2ccccc2s1)(c1ccccc1)c1ccccc1 | inactive: 0.52%
8 | O=P(Nc1ccccn1)(c1ccc(Br)cc1)c1ccc(Br)cc1 | inactive: -0.27%
9 | c1nnnn1CCn1cnnn1 | inactive: 0.6%
10 | CC(C)C(=O)NC(Sc1ccccc1)C(Cl)(Cl)Cl (configuration not stated) | inactive: 0.95%
11 | O=P(Nc1nccs1)(c1ccccc1)c1ccccc1 | inactive: -0.41%
12 | CC(=O)Nc1ccc(Oc2c([N+](=O)[O-])cc([N+](=O)[O-])cc2[N+](=O)[O-])cc1 | inactive: -0.33%
13 | CC(=O)Nc1ccc([As](=O)(O)O)c(O)c1 | inactive: 1.04%
14 | CC(C)(C)C(=O)NC(Sc1ccccc1)C(Cl)(Cl)Cl (configuration not stated) | inactive: 1.48%
15 | CCOc1ccc(C2=NCC(CBr)S2)cc1 (configuration not stated) | inactive: -0.93%
16 | O=P1(Nc2nc3ccc(Cl)cc3s2)COc2ccccc2O1 (configuration not stated) | inactive: -0.19%
17 | O=c1c2cc([N+](=O)[O-])ccc2[nH]c2c([N+](=O)[O-])cc([N+](=O)[O-])cc12 | inactive: -0.19%
18 | CN(C)C(=O)Oc1noc2ccccc12 | inactive: 2.15%
19 | Cc1ccccc1OP(=O)(Nc1ccccn1)Oc1ccccc1C | inactive: 0.86%
20 | CCC(=O)N1C2C3N(C(=O)CC)C1C1N(C(=O)CC)C(C(N1C(=O)CC)N3C(=O)CC)N2C(=O)CC | inactive: 1.46%
21 | CC(=O)NC(SC(=S)N(CC(C)C)CC(C)C)C(Cl)(Cl)Cl (configuration not stated) | inactive: -0.11%
22 | Cc1ccc(OP(=O)(Nc2ccccn2)Oc2ccc(C)cc2)cc1 | inactive: 0.2%
23 | COC(=O)c1cc2c(s1)N=C(c1ccccc1)N(C)P2(=O)N1CCOCC1 (configuration not stated) | inactive: -0.99%
24 | Cc1ccc(NP(=O)(Oc2cccc(C)c2)Oc2cccc(C)c2)nc1 | inactive: 0.43%
25 | CCOC(=O)NC(Sc1ccccc1)C(Cl)(Cl)Cl (configuration not stated) | inactive: 0.25%
26 | c1ccc(-c2nn[nH]n2)c(-c2nn[nH]n2)c1 | inactive: 0.17%

Row | Structure (SMILES) | inhibition
27 | CCNC(=S)/N=C(\N)N[N+](=O)[O-] | inactive: 0.71%
28 | O=C(NC1CCS(=O)(=O)C1)NP(=S)(Oc1ccccc1)Oc1ccccc1 (configuration not stated) | inactive: -0.36%
29 | Nc1cccc2ccc([As](=O)(O)O)cc12 | inactive: 1.72%
30 | CCN(N=Nc1nonc1N)c1nonc1N | inactive: 0.91%
31 | Cc1ccc(NP(=O)(Oc2ccccc2F)Oc2ccccc2F)nc1 | inactive: 0.63%
32 | Cc1cc(SC(NC(=O)c2ccc(F)cc2)C(Cl)(Cl)Cl)ncn1 (configuration not stated) | inactive: 0.9%
33 | CCOP(=O)(Nc1ccccc1)OCC | inactive: 0.25% and inactive: 2.52%
34 | O=P(Nc1nc2ccc(Cl)cc2s1)(c1ccccc1)c1ccccc1 | inactive: -0.44%
35 | CC(=O)Nc1ccc([As](=O)(O)O)cc1 | inactive: -0.16%
36 | O=C(O)c1ccccc1[As](=O)(O)O | inactive: 2.15%
37 | O=C(NC(Sc1ccncn1)C(Cl)(Cl)Cl)c1ccccc1 (configuration not stated) | inactive: 0.27%
38 | Cc1c2non([O-])c-2c(C)[n+](=O)[n+]1[O-] | inactive: 2.23%
39 | Oc1ccccc1CNc1ccccn1 | inactive: 0.98%
40 | Nc1cc(N)c2nonc2c1[N+](=O)[O-] | inactive: 0.44%
41 | CC(C)CC(=O)NC(Sc1ccc(Cl)cc1)C(Cl)(Cl)Cl (configuration not stated) | inactive: 0.1%
42 | CN1CCCC(OC(=O)C(c2ccccc2)c2ccccc2)C1 (configuration not stated) | inactive: 0.95%
43 | Clc1ccc(Cl)c(NC2=NCC(CBr)S2)c1 (configuration not stated) | inactive: 1.44%
44 | Cc1ccc(OP(=O)(Nc2nccs2)Oc2ccc(C)cc2)cc1 | inactive: 0.76%
45 | COc1ccccc1OP(=O)(Nc1ccc(C)cn1)Oc1ccccc1OC | inactive: 0.99%
46 | Cc1ccc(N/C(=N/P(=O)(N2CCOCC2)N2CCOCC2)N2CCOCC2)cc1 | inactive: 1.29%
47 | NC(=O)c1cc([N+](=O)[O-])cc([N+](=O)[O-])c1N | inactive: 0.01%
48 | CC1CCN(C(=O)Oc2c(Cl)cc(Cl)c3cccnc23)CC1 | inactive: -1.11%
49 | CN(C)C(=O)OCCc1n(C)cc[n+]1C | inactive: 0.5%
50 | CC(C)=N/N=C(\N)N[N+](=O)[O-] | inactive: 1.21%
51 | CCN(/C(=N/P(=O)(N1CCOCC1)N1CCOCC1)N1CCOCC1)c1ccc(OC)cc1 | inactive: 0.42%
52 | C[N+]1=C2C=CC=CC=C2SC12C([N+](=O)[O-])=CC([N+](=O)[O-])=C[C-]2[N+](=O)[O-] (configuration not stated) | inactive: 1.01%

Row | Structure (SMILES) | inhibition
53 | Nc1ccc([As](=O)(O)c2ccc(N)cc2)cc1 | inactive: 1%
54 | CCc1nc2c(n1)c1c(non1O)c1c2no[n+]1[O-] | inactive: 0.82%
55 | O=[N+]([O-])c1cc([N+](=O)[O-])c(CCNc2ccccc2)c([N+](=O)[O-])c1 | inactive: -0.85%
56 | Cc1ccc(NP(=O)(Oc2ccccc2)Oc2ccccc2)nc1 | inactive: -0.11%
57 | O=[N+]([O-])c1cccc2n[nH]nc12 | inactive: 0.39%
58 | CC(=O)N1C2C3N(C(C)=O)C1C1N(C(C)=O)C(C(N1C(C)=O)N3C(C)=O)N2C(C)=O | inactive: 0%
59 | COc1ccc(C2=NCC(CBr)S2)cc1 (configuration not stated) | inactive: 1.23%
60 | O=C(O)CNc1ccc([As](=O)(O)O)cc1 | inactive: 0.38%
61 | O=[N+]([O-])c1cccc(NC2=NCC(CBr)S2)c1 (configuration not stated) | inactive: -0.27%
62 | O=[N+]([O-])c1ncn(CCn2ncnc2[N+](=O)[O-])n1 | inactive: 0.38%
63 | CC(C)(C)C(=O)NC(Sc1ccncn1)C(Cl)(Cl)Cl (configuration not stated) | inactive: -0.17%
64 | O=C(Nc1cc([As](=O)(O)O)ccc1O)c1ccccc1 | inactive: 1.14%
65 | O=P(Nc1ccccn1)(c1cccc2ccccc12)c1cccc2ccccc12 | inactive: 2.2%
66 | Cc1cc(SC(NC=O)C(Cl)(Cl)Cl)ncn1 (configuration not stated) | inactive: 1.12%
67 | O=[N+]([O-])c1ccc(Nc2ccc(Oc3ccc([N+](=O)[O-])cc3[N+](=O)[O-])cc2)c([N+](=O)[O-])c1 | inactive: 1.67%
68 | CCOC(=O)Nc1cccc([As](=O)(O)O)c1 | inactive: -0.35%
69 | Cc1cc(SC(NC(=O)c2ccccc2)C(Cl)(Cl)Cl)nc(C(C)C)n1 (configuration not stated) | inactive: 1.01%
70 | CCOC(=O)Nc1ccc([As](=O)(O)O)c(O)c1 | inactive: 1.23%
71 | CCC(C)N(CC(C)C)C(=S)SC(NC(C)=O)C(Cl)(Cl)Cl (configuration not stated) | inactive: 1.24%
72 | CCOC(=O)c1ccc(NC(=O)C(C)(CCl)SC)cc1 (configuration not stated) | inactive: 1.01%
73 | O=C(COc1ccccc1)OC1CN2CCC1CC2 (configuration not stated) | inactive: 1.24%
74 | COP1(=S)c2c(C)nn(CCC#N)c2N=C(c2ccc(F)cc2)N1C (configuration not stated) | inactive: 0.28%
75 | COc1ccc(N/C(=N/P(=O)(N2CCOCC2)N2CCOCC2)N2CCOCC2)cc1 | inactive: 0.7%
76 | COc1cc(I)ccc1[As](=O)(O)O | inactive: 2%
77 | COc1ccc2nc(NP(=O)(c3ccccc3)c3ccccc3)sc2c1 | inactive: 0.18%
78 | Cc1c2c(nc3ccccc13)SC(C(Cl)Cl)C2 (configuration not stated) | inactive: -0.26%

Row | Structure (SMILES) | inhibition
79 | Cc1cc(=O)[nH]c(N[N+](=O)[O-])n1 | inactive: 0.54%
80 | O=C(OC1CN2CCC1CC2)C12CC3CC(CC(C3)C1)C2 (configuration not stated) | inactive: -1.96%
81 | O=[N+]([O-])c1cc([N+](=O)[O-])c(-c2ccn[nH]2)s1 | inactive: 1.17%
82 | CC(C)NC(=O)NP(=O)(Oc1ccccc1)Oc1ccccc1 | inactive: 1.31%
83 | CCN(CC)C(=S)SC(NC=O)C(Cl)(Cl)Cl (configuration not stated) | inactive: 0.8%
84 | ClCCSc1nnc(-c2cccnc2)o1 | inactive: 1.32%
85 | CC(C)c1ccc(OP(=O)(Nc2ccccn2)Oc2ccccc2F)cc1 (configuration not stated) | inactive: -0.3%
86 | Cc1ccc(OP(=O)(Nc2ccc([N+](=O)[O-])cn2)Oc2ccc(C)cc2)cc1 | inactive: 0.4%
87 | Cc1ccc2nc3c(c(C)c2c1)CC(C(Cl)Cl)S3 (configuration not stated) | inactive: -0.17%
88 | O=[As](O)(c1ccc(O)cc1)c1ccccc1O | inactive: 0.45%
89 | C[As](=O)(O)c1cccc(C(=O)O)c1 | inactive: 0.19%
90 | CCOP1(=S)c2c(C)nn(CCC#N)c2N=C(c2ccc(F)cc2)N1C (configuration not stated) | inactive: 1.98%
91 | O=[N+]([O-])c1ccc2c(c1)nnn2O | inactive: -0.44%
92 | Nc1ccccc1[As](=O)(O)c1ccccc1 | inactive: 0.49%
93 | O=C(O)COc1ccc([As](=O)(O)O)cc1[N+](=O)[O-] | inactive: 1.96%
94 | O=P(Nc1nccs1)(Oc1ccccc1)Oc1ccccc1 | inactive: 1.55%
95 | O=P(Nc1nccs1)(c1ccccc1)c1nc2ccccc2s1 (configuration not stated) | inactive: 0.36%
96 | CCOP1(=S)c2c(C)nn(CCC#N)c2N=C(c2ccccc2F)N1C (configuration not stated) | inactive: 0.22%
97 | CS(=O)(=O)c1cc([N+](=O)[O-])c2no[n+]([O-])c2c1 | inactive: 0.83%
98 | CCOP(=O)(Nc1cccc2ccccc12)OCC | inactive: -0.7%
99 | COc1cc(C2NCCC3(OCCO3)C2(C)C)cc(OC)c1OC (configuration not stated) | inactive: -0.48%
100 | Cc1ccc(NCCc2c([N+](=O)[O-])cc([N+](=O)[O-])cc2[N+](=O)[O-])cc1 | inactive: 0.12%
101 | Nc1cccc2c([As](=O)(O)O)cccc12 | inactive: 1.2%
102 | CCCOP(=S)(Nc1nc(N)cc(=O)[nH]1)OCCC | inactive: 0.69%
